In PubChem BioAssay AID651560 (Sanford-Burnham Center for Chemical Genomics, 2012):
The entries are a selection whose mix differs from that of the whole data set. Activity calls are given as the source filed them.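 The calls were made as follows: active = compounds that cut the enzyme signal by at least half of the control window in the single-dose screen; inactive = the rest.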

By UniProt entry, the sequences of proteins in these tests, tags left out. Where a name states a change or a piece, a line headed by the entry shows the natural chain unless it says otherwise.
UniProt P24666: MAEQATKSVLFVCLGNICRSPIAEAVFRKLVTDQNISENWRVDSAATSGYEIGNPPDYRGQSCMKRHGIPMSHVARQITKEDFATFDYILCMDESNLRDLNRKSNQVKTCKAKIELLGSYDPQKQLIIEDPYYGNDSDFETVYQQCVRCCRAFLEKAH

molecular target: Low molecular weight phosphotyrosine protein phosphatase (Homo sapiens) (UniProt P24666); test: inhibition of human LMPTP-A enzyme – biochemical, fluorescence intensity, uHTS, primary screen (AID 651560); conditions: recombinant LMPTP-A, OMFP fluorogenic substrate, at 20 µM, hits give high values;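 also: plate controls were DMSO wells with enzyme plus substrate for no effect and substrate without enzyme for full effect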
In short: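 Test system: LMPTP-A phosphatase enzyme. Amount: LMPTP-A at 0.625 nM final in the reaction. Reagent: OMFP substrate, 400 µM final. Times: 50 min at room temperature. Signal: endpoint fluorescence intensity from OMFP dephosphorylation. Read-out basis: % inhibition. Benchmarks: no-enzyme and uninhibited controls.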

| Structure (SMILES) | inhibition |
| --- | --- |
| O=[N+]([O-])c1cc(Oc2ccc([N+](=O)[O-])cc2C(F)(F)F)cc([N+](=O)[O-])c1 | inactive: 1.09% |
| COc1ccc(N/C(=N/P(=O)(N2CCOCC2)N2CCOCC2)N2CCOCC2)cc1 | inactive: -0.448% |
| Cc1c2c(nc3ccccc13)SC(C(Cl)Cl)C2 (configuration not stated) | inactive: 0.394% |
| O=C(OC1CN2CCC1CC2)C12CC3CC(CC(C3)C1)C2 (configuration not stated) | inactive: -0.971% |
| Cc1cc(=O)[nH]c(N[N+](=O)[O-])n1 | inactive: -2.31% |
| O=P1(N(CCCl)CCCl)Nc2ccccc2N1 | inactive: -4.92% |
| O=P1(N(CCCl)CCCl)OCCCN1CCCl (configuration not stated) | inactive: -2.77% |
| COc1ccc2nc(NP(=O)(c3ccccc3)c3ccccc3)sc2c1 | inactive: -0.838% |
| COc1cc(I)ccc1[As](=O)(O)O | inactive: -0.203% |
| O=C(OC1CN2CCC1CC2)c1cccc([N+](=O)[O-])c1 (configuration not stated) | inactive: -1.29% |
| CSc1ccc(Nc2c([N+](=O)[O-])cc([N+](=O)[O-])cc2[N+](=O)[O-])cc1 | inactive: 3.5% |
| CCOC(=O)c1ccc(NC(=O)C(C)(CCl)SC)cc1 (configuration not stated) | inactive: -2.65% |
| CCC(C)N(CC(C)C)C(=S)SC(NC(C)=O)C(Cl)(Cl)Cl (configuration not stated) | inactive: -0.0562% |
| COP1(=S)c2c(C)nn(CCC#N)c2N=C(c2ccc(F)cc2)N1C (configuration not stated) | inactive: -0.961% |
| COC(=O)C1(C)COP(=O)(N2CCCC2)OC1 (configuration not stated) | inactive: -1.71% |
| O=C(O)C(=O)c1ccc(N(CCCl)CCCl)cc1 | inactive: 47.2% |
| O=C(COc1ccccc1)OC1CN2CCC1CC2 (configuration not stated) | inactive: -0.833% |
| O=C(Nc1ccncc1[N+](=O)[O-])c1ccc([N+](=O)[O-])cc1[N+](=O)[O-] | inactive: -1.46% |
| CCOC(=O)Nc1cccc([As](=O)(O)O)c1 | inactive: -2.23% |
| Cc1cc(SC(NC=O)C(Cl)(Cl)Cl)ncn1 (configuration not stated) | inactive: 0.0497% |
| O=P(Nc1ccccn1)(c1cccc2ccccc12)c1cccc2ccccc12 | inactive: -0.313% |
| O=[N+]([O-])c1ccc(Nc2ccc(Oc3ccc([N+](=O)[O-])cc3[N+](=O)[O-])cc2)c([N+](=O)[O-])c1 | inactive: 2.3% |
| O=C(O)C(O)c1ccc(N(CCCl)CCCl)cc1 (configuration not stated) | inactive: 6.92% |
| CCOC(=O)Nc1ccc([As](=O)(O)O)c(O)c1 | inactive: -0.408% |
| CC1CCNP(=O)(N(CCCl)CCCl)O1 (configuration not stated) | inactive: -8.26% |
| COP(=O)(OC)N1CC1c1ccccc1 (configuration not stated) | inactive: -1.65% |

| Structure (SMILES) | inhibition |
| --- | --- |
| CCCCOc1ccc(C(=O)NCC2(N3CCCCC3)CCCCC2)cc1OC | inactive: -1.5% |
| Cc1cc(SC(NC(=O)c2ccccc2)C(Cl)(Cl)Cl)nc(C(C)C)n1 (configuration not stated) | inactive: 2.04% |
| Cc1ccc(S(=O)(=O)N(CCCN)CCCc2c(C)nc(N)[nH]c2=O)cc1 | inactive: 4.06% |
| O=P1(Nc2ncccn2)COc2ccccc2OC1 | inactive: -2.38% |
| Nc1cccc([As](=O)(O)c2ccccc2)c1 | inactive: -0.489% |
| Cc1ccc(OCC(=O)OC2CN3CCC2CC3)cc1 (configuration not stated) | inactive: -1.88% |
| O=[As](O)(c1cccs1)c1cccs1 | inactive: -2.17% |
| NS(=O)(=O)c1cccc(NC(=O)COC(=O)C(O)(c2ccccc2)c2ccccc2)c1 | inactive: -0.518% |
| O=P1(Nc2ccc(Br)cn2)COc2ccccc2OC1 | inactive: -0.778% |
| Cc1nn(-c2ccccc2)c2c1P(=O)(N1CCOCC1)N(C)C(c1ccccc1)=N2 (configuration not stated) | inactive: -1.08% |
| Cc1ccc(C(=O)OC2CN3CCC2CC3)cc1 (configuration not stated) | inactive: -2.34% |
| CC1CCC(C(C)C)C(OP(=O)(Nc2ccccn2)c2ccccc2)C1 (configuration not stated) | inactive: -0.414% |
| CN(C)C1(CNC(=O)c2ccc(S(C)(=O)=O)cc2)CCCCC1 | inactive: -0.289% |
| O=C(/C=C/c1ccccc1)OC1CN2CCC1CC2 (configuration not stated) | inactive: -1.27% |
| CCCC1OP(=O)(Nc2ccccc2)OCC1CC (configuration not stated) | inactive: -0.727% |
| COc1ccccc1CNC(=O)COC(=O)C(O)(c1ccccc1)c1ccccc1 | inactive: 0.493% |
| CN(C(=O)Cc1ccc(Cl)c(Cl)c1)[C@@H]1CCCC[C@H]1N1CCCC1 | inactive: 0.74% |
| CC(C)/C=N\N=C(\N)N[N+](=O)[O-] | inactive: -1.05% |
| CC1(CBr)Cn2c(nc3ccccc3c2=O)S1 (configuration not stated) | inactive: 0.564% |
| CCC1=CC2Cc3nc4ccc(Cl)cc4c(N)c3C(C1)C2 (configuration not stated) | inactive: 7.13% |
| O=P1(Nc2ccccn2)COc2ccccc2OC1 | inactive: -1.46% |
| CCOP(=O)(NC(=NC(C)c1ccccc1)NC(C)c1ccccc1)OCC (configuration not stated) | inactive: -0.352% |
| CCOP(=O)(Nc1ccc(C)cn1)OCC | inactive: -2.51% |
| CN(CCCl)Cc1cc(Cl)c(NC2=NCCN2)c(Cl)c1 | inactive: 1.57% |
| Clc1n[nH]nc1-c1nn[nH][15n]1 | inactive: -2.11% |
| O=P1(N(CCCl)CCCl)NCCC(C(F)(F)F)O1 (configuration not stated) | inactive: -4.67% |

| Structure (SMILES) | inhibition |
| --- | --- |
| CC(C)(C)C(=O)NC(Sc1ncccn1)C(Cl)(Cl)Cl (configuration not stated) | inactive: 1.35% |
| Cc1ccc(NCCc2c([N+](=O)[O-])cc([N+](=O)[O-])cc2[N+](=O)[O-])cc1 | inactive: 2.39% |
| Nc1cccc2c([As](=O)(O)O)cccc12 | inactive: 2% |
| CCCOP(=S)(Nc1nc(N)cc(=O)[nH]1)OCCC | inactive: -0.508% |
| COc1cc(C2NCCC3(OCCO3)C2(C)C)cc(OC)c1OC (configuration not stated) | inactive: -0.376% |
| CCOP(=O)(Nc1cccc2ccccc12)OCC | inactive: -3.24% |
| O=C(OC1CN2CCC1CC2)c1ccc(Cl)cc1 (configuration not stated) | inactive: -1.57% |
| O=[As](O)(O)c1cccnc1 | inactive: -0.283% |
| COc1cc(C(=O)NCC2(N3CCOCC3)CCCCC2)cc(Cl)c1OC(C)C | inactive: 1.91% |
| CS(=O)(=O)c1ccc(Cl)c(NC(=O)COC(=O)C(O)(c2ccccc2)c2ccccc2)c1 | inactive: 2.75% |
| Cc1cccc(OCC(=O)OC2CN3CCC2CC3)c1 (configuration not stated) | inactive: -0.803% |
| O=[As](O)(c1cccc(O)c1)c1cccc(O)c1 | inactive: -0.477% |
| NC(=O)Nc1ccc([As](=O)(O)O)cc1 | inactive: 0.0578% |
| N#CCCN(C(=O)COC(=O)C(O)(c1ccccc1)c1ccccc1)c1ccc(F)cc1 | inactive: -0.705% |
| CCOP1(=S)c2c(C)nn(CCC#N)c2N=C(c2ccc(F)cc2)N1C (configuration not stated) | inactive: -1.25% |
| CN(C(=O)Cc1ccccc1)[C@@H]1CC[C@]2(CCCO2)C[C@H]1N1CCCC1 | inactive: 0.909% |
| O=[N+]([O-])c1ccc2c(c1)nnn2O | inactive: -0.0505% |
| CN(C)C(=O)c1cc([N+](=O)[O-])cc2c1-c1c(cc([N+](=O)[O-])cc1[N+](=O)[O-])C2=O | inactive: 0.393% |
| CN(C(=O)Cc1ccc(Cl)c(Cl)c1)[C@H]1CC[C@@]2(CCCO2)C[C@@H]1N1CCCC1 | inactive: -3.32% |
| CCOP1(=S)c2c(C)nn(CCC#N)c2N=C(c2ccccc2F)N1C (configuration not stated) | inactive: 0.0642% |
| O=P(Nc1nccs1)(Oc1ccccc1)Oc1ccccc1 | inactive: 2.17% |
| O=P(Nc1nccs1)(c1ccccc1)c1nc2ccccc2s1 (configuration not stated) | inactive: -1.53% |
| CS(=O)(=O)c1cc([N+](=O)[O-])c2no[n+]([O-])c2c1 | inactive: -1.11% |
| O=C(O)COc1ccc([As](=O)(O)O)cc1[N+](=O)[O-] | inactive: -2.02% |
| Nc1ccccc1[As](=O)(O)c1ccccc1 | inactive: 2.34% |
